Among the data in ChEMBL document CHEMBL3621093, “Design, synthesis and evaluation of thiohydantoin derivatives as potent topoisomerase I (Top1) inhibitors with anticancer activity” (Eur J Med Chem, 2015) are Ratio EC50 values, retold here.

The assay has as its system Sf9. Nature of the assay: Selectivity ratio of EC50 for Leishmania donovani Top1(large/ small subunits) expressed in Escherichia coli BL21 (DE3) pLysS cells to EC50 for wild type recombinant human Top1 expressed in baculovirus infected insect Sf9 cells.

Molecules are shown by their SMILES.

As to `COc1ccc(-c2ccc(/C=C3/NC(=S)NC3=O)s2)cn1`, the Ratio EC50 amounted to 5.
